pIC50: −log10 of the molar value. Structures can show the parent of a compound that is named as a salt.
What follows are compounds tested against T1, PI3Kδ (p110δ/p85α) (Homo sapiens, UniProt O00329) (assay: PI3Kδ scintillation proximity assay).
T1 construct: purchased Millipore (Bedford, Mass.)
Assay type: biochemical
Excerpt: Materials: [γ-^33P]ATP (10 mCi/mL) was purchased from Perkin-Elmer (Waltham, Mass.). Lipid kinase substrate, D-myo-Phosphatidylinositol 4,5-bisphosphate (PtdIns(4,5)P2)D (+)-sn-1,2-di-O-octanoylglyceryl, 3-O-phospho linked (PIP2), CAS 204858-53-7, was purchased from Echelon Biosciences (Salt Lake City, Utah). PI3Kδ (p110δ/p85α) was purchased from Millipore (Bedford, Mass.). ATP, MgCl2, DTT, EDTA, MOPS and CHAPS were purchased from Sigma-Aldrich (St. Louis, Mo.). Wheat Germ Agglutinin (WGA) YSi SPA Scintillation Beads was purchased from GE healthcare life sciences (Piscataway, N.J.).
Assay: The kinase reaction was conducted in polystyrene 384-well matrix white plate from Thermo Fisher Scientific in a final volume of 25 μL. Inhibitors were first diluted serially in DMSO and added to the plate wells before the addition of other reaction components. The final concentration of DMSO in the assay was 0.5%. The PI3K assays were carried out at room temperature in 20 mM MOPS, pH 6.7, 10 mM MgCl2, 5 mM DTT and CHAPS 0.03%. Reactions were initiated by the addition of ATP, the final reaction mixture consisted of 20 μM PIP2, 20 μM ATP, 0.2 μCi [γ-^33P] ATP, 4 nM PI3Kδ. Reactions were incubated for 210 minutes and terminated by the addition of 40 μL SPA beads suspended in quench buffer: 150 mM potassium phosphate pH 8.0, 20% glycerol. 25 mM EDTA, 400 μM ATP. The final concentration of SPA beads is 1.0 mg/mL. After the plate sealing, plates were shaken overnight at room temperature and centrifuged at 1800 rpm for 10 minutes, the radioactivity of the product was determined by scintillation counting on Topcount (Perkin-Elmer). IC50 determination was performed by fitting the curve of percent control activity versus the log of the inhibitor concentration using the GraphPad Prism® 3.0 software.

Protein sequences, listed by entry. Tags and fused reporters are not part of them. Lines headed by an entry give the natural chain unless they say otherwise; changes in a name come on top.
UniProt O00329: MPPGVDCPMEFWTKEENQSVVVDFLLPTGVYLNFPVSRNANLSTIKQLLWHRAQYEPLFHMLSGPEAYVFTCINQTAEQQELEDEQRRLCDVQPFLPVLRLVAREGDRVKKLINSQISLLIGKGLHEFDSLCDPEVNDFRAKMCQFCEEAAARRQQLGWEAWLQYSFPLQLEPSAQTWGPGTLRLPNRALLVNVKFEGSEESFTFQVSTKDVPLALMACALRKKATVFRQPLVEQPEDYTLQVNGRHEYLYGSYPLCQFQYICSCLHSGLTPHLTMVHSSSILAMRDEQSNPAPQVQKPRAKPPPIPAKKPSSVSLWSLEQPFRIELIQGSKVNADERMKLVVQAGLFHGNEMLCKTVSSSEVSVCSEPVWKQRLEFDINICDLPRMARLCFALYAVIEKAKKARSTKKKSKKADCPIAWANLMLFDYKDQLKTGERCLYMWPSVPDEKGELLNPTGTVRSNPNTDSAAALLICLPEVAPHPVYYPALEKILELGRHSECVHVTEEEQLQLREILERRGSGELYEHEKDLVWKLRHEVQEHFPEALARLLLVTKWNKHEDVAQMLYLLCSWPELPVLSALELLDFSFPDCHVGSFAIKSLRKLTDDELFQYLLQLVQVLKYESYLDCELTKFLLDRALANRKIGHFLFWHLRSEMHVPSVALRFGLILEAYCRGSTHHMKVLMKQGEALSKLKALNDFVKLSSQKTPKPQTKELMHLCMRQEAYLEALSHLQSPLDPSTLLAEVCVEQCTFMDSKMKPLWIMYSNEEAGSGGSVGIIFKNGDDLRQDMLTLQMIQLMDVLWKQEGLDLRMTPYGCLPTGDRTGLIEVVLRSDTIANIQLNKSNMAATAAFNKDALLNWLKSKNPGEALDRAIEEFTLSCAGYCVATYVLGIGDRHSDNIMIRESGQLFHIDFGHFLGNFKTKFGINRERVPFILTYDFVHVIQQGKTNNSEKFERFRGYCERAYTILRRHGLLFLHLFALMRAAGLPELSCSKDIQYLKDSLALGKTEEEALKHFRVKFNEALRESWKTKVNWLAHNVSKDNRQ

| pIC50 | Compound |
| --- | --- |
| > 7.30 | CC(Nc1ncnc2[nH]cnc12)c1cc(Cl)c2ccnnc2c1-c1cccc(F)c1 (stereo not drawn) [Example 16, N-{1-[5-Chloro-8-(3-fluorophenyl)cinnolin-7-yl]ethyl}-9H-purin-6-amine] |
| > 7.30 | C[C@H](Nc1ncnc2[nH]cnc12)c1cc(Cl)c2ccnnc2c1-c1cccc(F)c1 [Example 108, N-{(1S)-1-[5-chloro-8-(3-fluorophenyl)cinnolin-7-yl]ethyl}-9H-purin-6-amine adipic acid salt] |
| < 6.00 | CC(Nc1ncnc2[nH]cnc12)c1cc(Cl)c2ccnnc2c1-c1cccc(F)c1 (single isomer, unassigned) [Example 18, N-{1-[5-Chloro-8-(3-fluorophenyl)cinnolin-7-yl]ethyl}-9H-purin-6-amine] |

From patent US8680108B2, “Substituted fused aryl and heteroaryl derivatives as PI3K inhibitors” (Incyte Corporation, priority 2009, dated 2014)
